According to patent EP1534672B1, “RETINOL DERIVATIVES, THEIR USE IN THE TREATMENT OF CANCER AND FOR POTENTIATING THE EFFICACY OF OTHER CYTOTOXIC AGENTS” (priority 2002, dated 2004):

Test: single dose i.p. toxicity study in rats
Settings: 100 mg/kg body weight

CC1=C(/C=C/C(C)=C/C=C/C(C)=C\C(=O)N[C@@H](CCS(=O)(=O)O)C(=O)O)C(C)(C)CCC1 [compound II-3, N-(13-cis-Retinoyl)-L-homocysteic acid]
mortality: did not produce mortality

CC1=C(/C=C/C(C)=C/C=C/C(C)=C/C(=O)N[C@@H](CS(=O)(=O)O)C(=O)O)C(C)(C)CCC1 [compound I-1, N-(all-trans-Retinoyl)-L-cysteic acid]
mortality: did not produce mortality
